The test has as its target T1, monoacylglycerol lipase (MAGL) (Homo sapiens, UniProt Q99685).
T1 construct: gene MGLL
In words: biochemical.

Chains of the proteins cited; added tags and fusions are not shown.
UniProt Q99685, whole entry: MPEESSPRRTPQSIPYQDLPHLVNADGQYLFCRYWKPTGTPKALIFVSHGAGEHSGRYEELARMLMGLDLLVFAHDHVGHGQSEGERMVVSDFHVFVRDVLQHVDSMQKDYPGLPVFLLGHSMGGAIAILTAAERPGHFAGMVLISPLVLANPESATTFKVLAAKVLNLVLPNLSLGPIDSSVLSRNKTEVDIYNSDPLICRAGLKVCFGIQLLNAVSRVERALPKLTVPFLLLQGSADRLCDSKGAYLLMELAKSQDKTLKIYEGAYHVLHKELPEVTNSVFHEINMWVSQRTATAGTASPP

pIC50: −log10 of the molar value.

The term pIC50 denotes the negative decadic logarithm of the IC50, by convention in mol/L. A high value points to a small IC50. With `O=C(Oc1ccc([N+](=O)[O-])cc1)N1CCN(Cc2cccc(Oc3ccccc3)c2)CC1` [JZL 195], the pIC50 was 8.10.
